The chains behind the UniProt entries cited, without tags or fusion partners. Where a name states a change or a piece, a line headed by the entry shows the natural chain unless it says otherwise.
UniProt Q06187: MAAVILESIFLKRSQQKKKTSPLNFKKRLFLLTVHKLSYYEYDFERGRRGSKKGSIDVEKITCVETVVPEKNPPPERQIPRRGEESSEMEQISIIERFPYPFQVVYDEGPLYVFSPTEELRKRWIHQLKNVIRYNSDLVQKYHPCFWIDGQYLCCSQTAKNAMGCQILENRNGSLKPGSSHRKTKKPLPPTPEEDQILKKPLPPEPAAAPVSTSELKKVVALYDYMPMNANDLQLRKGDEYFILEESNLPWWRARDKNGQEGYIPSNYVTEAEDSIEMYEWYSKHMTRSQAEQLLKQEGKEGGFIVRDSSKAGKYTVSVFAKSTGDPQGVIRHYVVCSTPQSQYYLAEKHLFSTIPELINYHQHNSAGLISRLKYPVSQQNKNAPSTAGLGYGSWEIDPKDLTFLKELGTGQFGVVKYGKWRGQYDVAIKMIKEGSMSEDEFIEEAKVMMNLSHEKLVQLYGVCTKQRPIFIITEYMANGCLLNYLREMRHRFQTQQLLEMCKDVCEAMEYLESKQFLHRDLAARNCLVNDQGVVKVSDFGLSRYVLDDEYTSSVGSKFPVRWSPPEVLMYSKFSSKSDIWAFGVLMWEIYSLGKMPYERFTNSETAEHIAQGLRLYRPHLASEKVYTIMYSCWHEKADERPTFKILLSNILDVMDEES

According to patent US9580449B2, “Compositions and methods for the production of pyrimidine and pyridine compounds with BTK inhibitory activity” (Merck Patent GmbH, priority 2011, dated 2017):

Target: BTK (Homo sapiens (Human), UniProt Q06187)
Test: Time Dependent Human Whole Blood IC50 assay
Assay type: cell-based
Conditions: read-out: Time Dependent Human Whole Blood BTK Enzyme Assay IC50
Procedure: Compounds described by embodiments of the present invention were assayed using a human whole blood assay. The data from the same is recorded in Table 2 within the column labeled: “Time Dependent Human Whole Blood BTK Enzyme Assay IC50”.

`C=CC(=O)N1CC[C@@H](Nc2ncnc(N)c2-c2ccc(Oc3ccccc3)cc2)C1` [A1, (R)-1-(3-((6-amino-5-(4-phenoxyphenyl)pyrimidin-4-yl)amino)pyrrolidin-1-yl)prop-2-en-1-one] was tested, and the IC50 was less than 1000 nM.
